According to PubChem BioAssay AID2017 (National Center for Advancing Translational Sciences (NCATS), 2009):
The list shows a part of the results, in another mix than the full data. Records with an inconclusive call do not appear. The source made the active and inactive calls. The call rests on the fitted dose curve; in most records, active means well fitted curve in the direction sought with a large enough effect; inconclusive means small, poorly fitted or top-dose-only effect, or another doubt; inactive means no such curve, though single readings can be large or run the other way.

These compounds were tested on 4-diphosphocytidyl-2-C-methyl-D-erythritol kinase IspE (bacterial, species not stated) (assay: Confirmatory Assay for Inhibitors of Human Galactokinase (GALK): CDP-Me assay counterscreen). Conditions: ATP depletion, Kinase-Glo luminescence; at 115 µM (top of the series).
Source text: NIH Molecular Libraries Probe Production Centers Network [MLPCN] NIH Chemical Genomics Center [NCGC] MLPCN Grant: R03 MH085689-01 Assay Submitter (PI): Kent Lai (University of Utah School of Medicine, 50 N Mario Capecchi Drive, Salt Lake City, UT 84132) NCGC Assay Overview The GHMP kinase family is a unique class of important enzymes that plays an essential role in many metabolic processes. It contains more than 170 protein members among which are the galactokinase (GALK) and the CMK enzymes. GALK plays a crucial role in galactose processing and is a potential therapeutic target for Classic Galactosemia (OMIM: 230400). CMK is involved for the non-mevalonate synthesis of isoprenoids precursors and natural products like sterols or ubiquinones which are important to many biological functions. Although the sequence identity between GALK and CMK is low, the three-dimensional structures and active sites are highly similar. Therefore to determine the validity and selectivity of an active compound observed in the GALK qHTS screen (AID: 1868), a bioluminescent counter-screen targeting bacterial CMK was developed. In addition, because the mevalonate independent synthesis of isoprenoids are more prevalent in opportunistic pathogens such as bacteria, CMK is a potential novel therapeutic target where selective inhibitors could be used to determine potential antibacterial effects. The CMK (provided by Kent Lai) was assayed using ATP and 4-diphosphocytidyl-2-C-methyl-D-erythritol (CDP-ME; Echelon, cat# I-M052) as substrates. Promega Kinase-Glo Plus (cat# V3774) technology was used to detect the residual ATP following kinetic reaction. Briefly, the Kinase-Glo Plus contains Ultra-Glo [5] luciferase and D-luciferin which generates a bioluminescence signal from the remaining ATP.
NCGC Assay Protocol Summary: Three uL/well of substrate solution (15 uM ATP, 30 uM CDP-ME, 20 mM HEPES pH8.0, 5 mM MgCl2, 40 mM KCl, 1 mM DTT, 0.01% BSA final concentration) was dispensed into 1536-well, assay plates (Greiner, solid white medium-binding plates) with Aurora Discovery BioRAPTR Flying Reagent Dispenser (FRD; Beckton-Dickenson). […] One uL/well enzyme solution (0.25 ug/mL CDP-Me kinase, 20 mM HEPES pH8.0, 5 mM MgCl2, 40 mM KCl, 1 mM DTT, 0.01% BSA final concentration) was then added using the FRD yielding a total kinase reaction volume of 4 uL/ well. After 1 hour of room temperature incubation, 4 uL Kinase-Glo Plus reagent was added for a final assay volume of 8 uL/well. After 1 min, luminescence was detected with the ViewLux plate reader (Perkin Elmer, Waltham, MA) using a 1 sec exposure time and 2x binning settings.
`CN(C)c1cc(Cl)c2nonc2c1N` was tested, and the activity change, negative = inhibition was inactive: -19.2%.
With `O=C1C=C(N2CCOCC2)c2ccccc2C1=O` the activity change, negative = inhibition was inactive: -19.5%.
In the case of `Cc1ccccc1NC1=C/C(=N\S(=O)(=O)c2ccc(C(=O)O)cc2)c2ccccc2C1=O`, the activity change, negative = inhibition is reported as inactive: -7.23%.
`O=[N+]([O-])c1cc([N+](=O)[O-])c2oc(-c3ccccc3)c(Br)c2c1O` was tested, and the activity change, negative = inhibition was inactive: -9.68%.
For `Cc1ccc(C(=O)NC2(O)C(=O)c3ccccc3C2=O)cc1C`, the activity change, negative = inhibition was inactive: -19.5%.
For `COc1ccc(N=C2S/C(=C\c3ccc(OC(C)C(=O)O)c(OC)c3)C(=O)N2CCc2c[nH]c3ccccc23)cc1` (configuration not stated), the activity change, negative = inhibition was inactive: -3.15%.
In the case of `O=C(O)c1ccc(S(=O)(=O)/N=C2\C=C(Nc3ccccc3F)C(=O)c3ccccc32)cc1`, the activity change, negative = inhibition is reported as inactive: -13.3%.
With `CCc1ccc(S(=O)(=O)/N=C2\C=C(Nc3ccc(C(=O)O)cc3)C(=O)c3ccccc32)cc1` the activity change, negative = inhibition was inactive: -4.34%.
In the case of `O=C1Nc2ccc([N+](=O)[O-])cc2C1=Nc1cccc(CO)c1`, the activity change, negative = inhibition is reported as inactive: -4.72%.
In the case of `N=C1/C(=C/c2cccs2)C(=O)N=C2SN=C(SCc3ccccc3)N12`, the activity change, negative = inhibition is reported as inactive: -0.471%.
`O=C(NC1(O)C(=O)c2ccccc2C1=O)c1ccccc1` was tested, and the activity change, negative = inhibition was inactive: -16.1%.
`CCOC(=O)C1=C(C)OC2(O)c3ccccc3C(=O)C12O` (configuration not stated) was tested, and the activity change, negative = inhibition was inactive: -13.1%.
